ChEMBL document CHEMBL3351549, “Discovery of a Potent and Selective BCL-XL Inhibitor with in Vivo Activity” (ACS Med Chem Lett, 2014)

Species: Homo sapiens
Assay: Selectivity index, ratio of Ki for BCL-2 (unknown origin) to Ki for BCL-XL (unknown origin)

Ratio Ki: > 1000
SMILES: CN(C)CC#Cc1ccc(OCCCc2sc(N3CCc4cccc(C(=O)Nc5nc6ccccc6s5)c4C3)nc2C(=O)O)c(F)c1 [A-1155463]
